In ChEMBL document CHEMBL1155427, “Dopamine receptor ligands. Part 18: (1) modification of the structural skeleton of indolobenzazecine-type dopamine receptor antagonists” (J Med Chem, 2010):
pKi: −log10 of the molar value.

Protein sequences, listed by entry. Tags and fused reporters are not part of them.
UniProt P14416, whole entry: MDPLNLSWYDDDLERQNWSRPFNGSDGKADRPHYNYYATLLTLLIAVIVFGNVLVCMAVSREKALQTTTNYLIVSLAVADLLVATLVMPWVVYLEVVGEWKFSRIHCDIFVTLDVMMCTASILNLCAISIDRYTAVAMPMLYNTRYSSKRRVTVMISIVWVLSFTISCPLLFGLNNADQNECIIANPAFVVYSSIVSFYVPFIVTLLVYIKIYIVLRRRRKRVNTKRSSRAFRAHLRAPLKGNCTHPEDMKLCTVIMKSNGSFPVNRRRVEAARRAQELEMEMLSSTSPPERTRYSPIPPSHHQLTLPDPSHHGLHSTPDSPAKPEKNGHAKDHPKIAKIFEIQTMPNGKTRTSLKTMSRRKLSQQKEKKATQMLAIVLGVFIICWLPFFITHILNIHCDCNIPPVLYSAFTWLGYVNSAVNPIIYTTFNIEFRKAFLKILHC

Molecular target: D(2) dopamine receptor (Homo sapiens, UniProt P14416)
Assay: Displacement of [3H]spiperone from human recombinant dopamine D2L receptor expressed in HEK293 cells by microplate scintillation counting
Assay type: cell-based
Summary of the method: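 Human D2L or D3 receptor stably expressed in HEK cells, or D4.4 in CHO cells. Competition binding against [3H]spiperone as the D2-like radioligand. Ki values in nM are means of two or three experiments, each run in triplicate, ± SEM.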

c1ccc2c(c1)CCN1Cc3cccc4[nH]cc(c34)C21 (stereo unspecified)
pKi: < 5.00
